Data taken from patent US12485126B2, “Combination for treating cancer” (INSERM (Institut National de la Santé et de la Recherche …, priority 2018, dated 2025).

Columns and labels:
[1] = system: EGFR^T790M/L858R-driven tumors; experiment: Immunohistochemistry of tumors from treated EGFR^T790M/L858R mice; assay type: in vivo; details: compared to vehicle treated mice
Protocol: Osimertinib (Cliniscience, France) was given by gavage early in the morning 5 days a week (from Monday to Friday) by gavage at 5 mg/kg/day. Antibodies diluted in PBS against NOTCH1 (NRR1) and NOTCH3 (NRR3) were administered by IP injection. NRR1 at 5 mg/kg/day every 5 days and NRR3 at 15 mg/kg/day every Monday and Thursday respectively, in both cases during 5 weeks. Mice were scarified 4 h after the last treatment and samples were obtained for immunohistochemical and western blot analysis.
(§1) For routine histological analysis, lung lobes were fixed in 10% buffered formalin (Sigma, USA), embedded in paraffin. Consecutive 3 μm-thick sections were cut and stained with hematoxylin and eosin (H&E) or used for IHC. For quantification of tumors in the H&E, the five lobes of the lungs (4 right and 1 left) were placed in a similar plane and a single section across all the lobes was examined by H&E. Tumoural- and total lung area were measured using Image J software of the whole slide scan. For pathological analysis of H&E, classical citoarchitectural histological features such as invasion or high mitotic rate were applied by the expert pathologist M. C., to identify and quantify the adenocarcinomas. […] For each tumor, five high-magnification fields were scored. We scored on average 1500 cells per tumor in two categories: positive or negative also using Image J software. […]

[2] = system: EGFR^T790M/L858R-driven LUAD; experiment: Tumoral area and histopathology of lungs in EGFR^T790M/L858R; CCSP-rtTA mice; assay type: in vivo
Protocol: Tet-on-EGFR^T790M/L858R; CCSP-rtTA and the Kras^G12D/+; Stat3^f/f mice were already described (11,12,29).
The induction of the tumors in EGFR model was done by administration of Doxycyline pellets in the diet (A03 at 1 g/Kg Doxycycline Hyclate, Safe, France) in mice during 8 weeks and maintained all time during the treatments with the different drugs.
Osimertinib (Cliniscience, France) was given by gavage early in the morning 5 days a week (from Monday to Friday) by gavage at 5 mg/kg/day. Antibodies diluted in PBS against NOTCH1 (NRR1) and NOTCH3 (NRR3) were administered by IP injection. […]
as §1, with “Consecutive 3 μm-thick sections were cut and stained with hematoxylin and eosin (H&E) or used for IHC.” left out

COc1cc2ncnc(Nc3ccc(F)c(Cl)c3)c2cc1OCCCN1CCOCC1 [gefitinib]
IHC staining of proteins (HES1, Ki67, pERK, pAKT) [1]: did not impact on the staining of any proteins
tumoral area ([2]; five weeks of treatment, DBZ/gefitinib experiment, control group 42%): 52%
amount of LUADs on average per mouse ([2]; histopathological analysis, controls or gefitinib 31): did not affect the amount of LUADs
